Earlier results in publication PMC3312455.

Target: PDGFRβ ECD (Homo sapiens) (UniProt P09619)
Test: SPR

PDGF-BB (from UniProt P01127)
Kd: 1.6 nM
